Target: α1β2γ2 GABAA receptors (Homo sapiens (Human), UniProt P14867+P47870)
Assay: Patch clamp electrophysiology (QPatch) of recombinant α1β2γ2 GABAA receptors in LTK cells
Type: cell-based
Settings: 10 μM test article, GABA EC20 = 2 μM, read-out: GABA (α1β2γ2) Qpatch in Ltk, % efficacy at 10 μM
Method: Cellular electrophysiology is used to measure the pharmacological properties of our GABAA receptor modulators in heterologous cell systems. Each compound is tested for its ability to affect GABA mediated currents at a suhmaximal agonist dose (GABA EC20=2 μM). LTK cells are stably transfected with the α1β2γ2 subunits of the GABA receptor and CHO cells are transiently transfected with the α4β3δ subunits via the Lipofecatamine method. Cells were passaged at a confluence of about 50-80% and then seeded onto 35 mm sterile culture dishes containing 2 ml culture complete medium without antibiotics or antimycotics. Confluent clusters of cells are electrically coupled (Pritchett et al., Science, 1988, 242, 1306-1308). Because responses in distant cells are not adequately voltage clamped and because of uncertainties about the extent of coupling (Verdoom et al., Neuron 1990, 4, 919-928), cells were cultivated at a density that enables the recording of single cells (without visible connections to other cells).
Whole cell currents were measured with HEKA EPC-10 amplifiers using PatchMaster software or by using the high throughput QPatch platform (Sophion). […]
Cells were voltage clamped at a holding potential of −80 mV. […] GABAA receptors α1β2γ2 and α4β3δ% efficacy: “A” 10-100, “B”>100-500, “C”>500; D indicates the data is not available or has not been determined.

COC[C@@]1(O)CC[C@@]2(C)[C@@H](CC[C@@H]3[C@@H]2CC[C@]2(C)[C@@H](C(=O)Cn4cc(C(=O)N(C)C)cn4)CC[C@@H]32)C1 [Compound 162]
Emax at 10 µM: > 500%

— patent US11530237B2, “Compositions and methods for treating CNS disorders” (Sage Therapeutics, Inc., priority 2014, dated 2022)
